Here are results for one substance from US10316100B2, “Treating basal-like genotype cancers” (The UAB Research Foundation, priority 2009, dated 2019).

The chains behind the UniProt entries cited, without tags or fusion partners. Residues count along the entry.
UniProt Q14790, 385-479 limits assumed: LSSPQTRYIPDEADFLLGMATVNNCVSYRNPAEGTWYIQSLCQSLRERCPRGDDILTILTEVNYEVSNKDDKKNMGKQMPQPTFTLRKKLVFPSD
UniProt Q14790, 217-374 limits assumed: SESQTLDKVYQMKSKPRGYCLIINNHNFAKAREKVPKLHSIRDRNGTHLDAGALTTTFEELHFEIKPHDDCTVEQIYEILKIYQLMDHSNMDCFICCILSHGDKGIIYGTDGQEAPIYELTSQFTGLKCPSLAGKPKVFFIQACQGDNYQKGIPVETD

This experiment deals with T1, caspase-8 (Homo sapiens, UniProt Q14790).
T1 construct: purchased EMD Biosciences, Inc (San Diego, Calif.)
The experiment in a line: Assay of caspase activity in vitro (Ac-IETD-AMC). Format: biochemical. Particulars: active caspase-8, Ac-IETD-AMC. How it is done: Fluorometric assays were conducted in 96-well clear bottom plates, and all measurements were carried out in triplicate wells. 100 μl of assay buffer (10 mM HEPES pH 7.0, 50 mM NaCl, 2 mM MgCl2, 5 mM EDTA, and 1 mM DTT) was added. Active caspase-8 and peptide substrates (Ac-IETD-AMC) were added to each well to a final concentration of 100 ng/μl. Co-immunoprecipitation eluted fraction was added to start the reaction. Background fluorescence was measured in wells containing assay buffer, substrate, and lysis buffer without the cell lysates. Assay plates were incubated at 37° C. for 1 hour. Fluorescence was measured on a fluorescence plate reader (Bio-Tek; Winooski, Vt.) set at 355-nm excitation and 440-nm emission.
As cleavage of DDX3 was inhibited in the induced resistant cells, it promoted a study to determine the step in apoptosis signaling in which DDX3 inhibits DR5-mediated apoptosis. The DDX3/cIAP1 complex was predicted to inhibit caspase-8 activation; therefore, the activation of caspase-8 at the DR5-DDX3-cIAP1 complex as one of the first detectable events after receptor triggering was examined. To assess the effect of the DR5-DDX3-cIAP1 complex on caspase-8 activation, the caspase activity was measured using the fluorogenic substrate, Ac-IETD-AMC, incubated with active caspase-8 and DDX3 co-IP eluted fractions from parental sensitive or induced resistant cells. […]

As for “purified cIAP1: purified cIAP1 protein, inhibitor of apoptosis”, the caspase-8 protease activity result is on record as “suppressed caspase-8 protease activity completely”.
